These results are taken from patent publication US10005817B2, “Peptide pharmaceuticals” (EUMEDERIS PHARMACEUTICALS, INC., priority 2012, dated 2018).

By UniProt entry, the sequences of proteins in these tests, tags left out.
UniProt P35372, whole entry: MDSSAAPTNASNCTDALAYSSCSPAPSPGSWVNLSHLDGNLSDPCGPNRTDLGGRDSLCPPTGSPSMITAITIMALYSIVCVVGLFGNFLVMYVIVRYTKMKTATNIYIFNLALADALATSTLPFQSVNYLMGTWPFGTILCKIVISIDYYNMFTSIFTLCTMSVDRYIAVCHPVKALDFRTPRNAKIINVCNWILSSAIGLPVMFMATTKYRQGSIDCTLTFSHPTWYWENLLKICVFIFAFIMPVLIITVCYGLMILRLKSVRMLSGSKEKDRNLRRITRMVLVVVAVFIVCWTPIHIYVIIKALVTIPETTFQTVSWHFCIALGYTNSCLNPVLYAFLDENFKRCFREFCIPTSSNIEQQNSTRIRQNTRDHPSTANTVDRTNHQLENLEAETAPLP
UniProt P32300, whole entry: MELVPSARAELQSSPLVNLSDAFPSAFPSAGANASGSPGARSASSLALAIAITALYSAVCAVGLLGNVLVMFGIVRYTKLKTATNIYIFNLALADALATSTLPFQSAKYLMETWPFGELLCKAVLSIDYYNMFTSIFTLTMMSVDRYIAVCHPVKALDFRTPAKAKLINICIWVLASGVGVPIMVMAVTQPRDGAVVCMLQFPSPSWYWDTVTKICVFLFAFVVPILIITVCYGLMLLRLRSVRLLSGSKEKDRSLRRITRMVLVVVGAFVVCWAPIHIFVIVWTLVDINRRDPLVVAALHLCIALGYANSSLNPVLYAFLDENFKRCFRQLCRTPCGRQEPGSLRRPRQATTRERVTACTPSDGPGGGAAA

What is called EC50 is the midpoint of the concentration-response curve. Low values mean an effect from little substance, high ones a need for much substance. By IC50 is commonly meant the concentration at which inhibition is half-maximal.

One assay deals with T1, mu opioid receptor (Homo sapiens, UniProt P35372).
T1 construct: Cerep
The assay can be described thus: mu opioid receptor cellular assay (MOP), agonist mode, cAMP readout (Cerep). The assay is classed as cell-based. As to the method:
(§1) Compounds were weighed precisely in an amount of approximately 2 mg and assayed in standard cellular assays by the contract research organization Cerep, Inc. (Pullman, Wash.) as executed at their subsidiary, Cerep SA (Le Bois l'Eveque, France). The readout is the amount of cAMP generated in the cells treated with the test compounds, in either agonist or antagonist mode. The assays used were the mu opioid receptor cellular assay (MOP in agonist and antagonist mode), the delta2 opioid receptor cellular assay (DOP in agonist and antagonist mode) and the kappa opioid receptor cellular assay (KOP in agonist and antagonist mode). The assays used are described in Wang, J. B., et al. (1994) FEBS Lett 338: 217-222, Law, P. Y. and Loh, H. H. (1993) Mol Pharmacol 43: 684-693, and Avidor-Reiss, T., et al. (1995) FEBS Lett 361: 70-74. The stimulant for the cells in the DOR antagonist assay was 3×10E-8M DPDPE, a well-accepted DOR literature standard.

The target of a further assay is T2, delta2 opioid receptor (Mus musculus, UniProt P32300).
T2 construct: Cerep
As to the kind of experiment: delta2 opioid receptor cellular assay (DOP), antagonist mode vs DPDPE, cAMP readout. The assay is classed as cell-based. On the procedure: as §1

For `CO[C@@H]1O[C@H](C(=O)NCCCC[C@H](NC(=O)[C@H](Cc2ccccc2)NC(=O)[C@@H]2Cc3ccccc3CN2C(=O)[C@@H](N)Cc2c(C)cc(O)cc2C)C(N)=O)[C@@H](O)[C@H](O)[C@H]1O` [EU-A178, 2′,6′-dimethyl-L-tyrosyl-L-1,2,3,4-tetrahydroisoquinoline-3-carbonyl-L-phenylalanyl-Nε-(1′-methyl β-D-glucuronyl)-L-lysyl-amide], the EC50 on mu opioid receptor was determined as 0.015 µM.
For `CO[C@@H]1O[C@H](C(=O)NCCCC[C@@H](NC(=O)[C@H](Cc2ccccc2)NC(=O)[C@@H]2Cc3ccccc3CN2C(=O)[C@@H](N)Cc2c(C)cc(O)cc2C)C(N)=O)[C@@H](O)[C@H](O)[C@H]1O` [EU-A615, Dmt-Tic-Phe-D-Lys(C1-glucuronyl)-Aib-NH2], on mu opioid receptor, the response was half-maximal at 0.41 µM (EC50). At delta2 opioid receptor, the IC50 was determined as 0.00031 µM.
